Test results as given in PMC6329626 (British Journal of Pharmacology, 2018).

The chains behind the UniProt entries cited, without tags or fusion partners.
UniProt P24462, whole entry: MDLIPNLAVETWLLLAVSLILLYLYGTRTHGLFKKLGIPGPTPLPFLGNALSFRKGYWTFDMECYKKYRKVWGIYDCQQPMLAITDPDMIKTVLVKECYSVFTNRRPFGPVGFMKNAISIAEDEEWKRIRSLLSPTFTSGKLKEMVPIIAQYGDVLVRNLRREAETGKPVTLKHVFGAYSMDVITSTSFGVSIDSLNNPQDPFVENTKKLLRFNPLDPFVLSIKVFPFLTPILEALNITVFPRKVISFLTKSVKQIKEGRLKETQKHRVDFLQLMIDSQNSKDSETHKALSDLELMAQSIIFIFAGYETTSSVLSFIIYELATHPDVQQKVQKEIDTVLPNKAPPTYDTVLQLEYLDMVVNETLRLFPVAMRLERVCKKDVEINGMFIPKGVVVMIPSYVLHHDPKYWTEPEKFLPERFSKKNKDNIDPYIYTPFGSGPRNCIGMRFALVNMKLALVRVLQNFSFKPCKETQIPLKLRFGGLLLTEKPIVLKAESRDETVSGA

Target: recombinant CYP3A7 (Homo sapiens, UniProt P24462)
Assay: Enzyme kinetics of flucloxacillin hydroxylation by CYP3A7 Supersomes
Assay type: in vitro ADME
Conditions: 100 nM CYP3A7 Supersomes, 10 min

Compound: Cc1onc(-c2c(F)cccc2Cl)c1C(=O)N[C@@H]1C(=O)N2[C@@H]1SC(C)(C)[C@@H]2C(=O)O [flucloxacillin]
- K M of 5′-HM-FLX formation: 65 ± 8 µM
